AlphaSeq binding of Ab-14 light chain variants to a spike HR2 peptide

Source: Engelhart et al. 2022 (doi:10.1038/s41597-022-01779-4), MIT Lincoln Laboratory and A-Alpha Bio; data file from the FLAb repository.

Target peptide (SARS-CoV-2 spike, HR2 region): PDVDLGDISGINAS

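In library AAYL50, one, two or three CDR residues were substituted; doubles and triples were drawn at random. The scFvs were displayed on barcoded MATa yeast, the peptide on MATalpha yeast. The frequency of each diploid, read from paired DNA barcodes, reflects how well the two displayed proteins bind. The ratio of observed to expected reads was calibrated, replicate by replicate, on BCL2-family standards whose Kd was known from biolayer interferometry. The assay was run in three technical replicates.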

Ab-14 is the parent antibody, in scFv form: VH, then the linker GGGGSGGGGSGGGGS, then VL. The heavy chain is unchanged in all variants.
VH: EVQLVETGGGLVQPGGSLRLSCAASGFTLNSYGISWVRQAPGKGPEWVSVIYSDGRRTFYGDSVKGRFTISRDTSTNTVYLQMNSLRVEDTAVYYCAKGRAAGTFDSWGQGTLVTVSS
VL: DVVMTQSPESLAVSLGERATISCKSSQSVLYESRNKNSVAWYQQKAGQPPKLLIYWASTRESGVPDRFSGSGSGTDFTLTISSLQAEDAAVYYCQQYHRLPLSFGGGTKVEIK

The whole VL of each variant is written out.
Every variant below is changed at K36 of the VL (sequential numbering).
Values are apparent Kd, the geometric mean of the replicates that gave a signal; lower means stronger binding.
"nd" means that the variant was in the library but no mating with the target was seen in any replicate; the authors take this as a sign of poor binding, and no number exists.
Nonspecific signal, from three strains lacking the peptide, appeared in 18% of pairings of library AAYL50, centred on 15 µM (5% of these signals below 970 nM); values are not corrected for it. For each scFv, signals with the empty controls are counted beside the result.
In this assay the parent's reference entry averaged 4.4 nM; its copy inside this library read 48 nM.

Variant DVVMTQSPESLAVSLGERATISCKSSQSVLYESRNLNSVGWYQQKAGQPPKLLIYWAGTRESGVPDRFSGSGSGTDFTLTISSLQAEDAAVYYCQQYHRLPLSFGGGTKVEIK gave 22 µM (2 of 3 replicates; controls 1 of 9). Variant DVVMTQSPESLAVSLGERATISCKSAQSVLYESRNYNSVAWYQQKAGQPPKLLIYWASTRESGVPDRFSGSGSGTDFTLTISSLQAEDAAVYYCQQYHRLMLSFGGGTKVEIK gave nd (0 of 3 replicates; controls 2 of 9). With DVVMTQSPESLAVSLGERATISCKSSQSVIYESRNLNSVAWYQQKAGQPPKLLIYWASTRESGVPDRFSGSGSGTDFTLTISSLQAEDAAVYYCQQYHRVPLSFGGGTKVEIK the result was 1.6 mM (1 of 3 replicates; controls 0 of 9). For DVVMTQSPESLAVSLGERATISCKSSQSVLYFSRNAISVAWYQQKAGQPPKLLIYWASTRESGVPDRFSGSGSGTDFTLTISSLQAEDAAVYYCQQYHRLPLSFGGGTKVEIK, the assay gave 15 µM (3 of 3 replicates; controls 1 of 9). For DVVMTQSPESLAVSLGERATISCKSSQSVLYESRESNSVAWYQQKAGQPPKLLIYWASTRESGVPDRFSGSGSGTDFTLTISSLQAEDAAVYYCQQYHRQPLSFGGGTKVEIK, the assay gave 22 nM (3 of 3 replicates; controls 0 of 9). With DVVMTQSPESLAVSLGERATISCKSSQGVLYESRNSNSVLWYQQKAGQPPKLLIYWASTRESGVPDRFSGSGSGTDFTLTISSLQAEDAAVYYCQQYHRLPLSFGGGTKVEIK the result was 73 µM (2 of 3 replicates; controls 6 of 9). For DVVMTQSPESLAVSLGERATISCKSSQSVLYESRWFNSVAWYQQKAGQPPKLLIYWASTRESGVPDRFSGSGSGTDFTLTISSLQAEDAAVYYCQQFHRLPLSFGGGTKVEIK, the assay gave 2.6 µM (3 of 3 replicates; controls 1 of 9). For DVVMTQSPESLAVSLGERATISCKSSQSVLYESRNFNTVAWYQQKAGQPPKLLIYWASTRESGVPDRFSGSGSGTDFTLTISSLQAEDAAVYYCQQYHRLPLSFGGGTKVEIK, the assay gave 1.6 µM (3 of 3 replicates; controls 3 of 9).

Variant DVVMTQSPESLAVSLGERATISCKSSQGVLYESRNCNSVAWYQQKAGQPPKLLIYWPSTRESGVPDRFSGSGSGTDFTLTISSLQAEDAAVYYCQQYHRLPLSFGGGTKVEIK gave 13 µM (2 of 3 replicates; controls 1 of 9). Variant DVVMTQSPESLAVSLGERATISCKSVQPVLYESRNYNSVAWYQQKAGQPPKLLIYWASTRESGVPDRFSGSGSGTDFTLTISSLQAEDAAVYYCQQYHRLPLSFGGGTKVEIK showed 21 nM (3 of 3 replicates; controls 8 of 9). With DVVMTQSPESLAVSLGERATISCKSSQSVLYTVRNNNSVAWYQQKAGQPPKLLIYWASTRESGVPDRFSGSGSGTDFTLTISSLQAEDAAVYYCQQYHRLPLSFGGGTKVEIK the result was 160 nM (2 of 3 replicates; controls 0 of 9). For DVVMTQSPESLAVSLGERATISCKSSQSVLYESRNPNSVAWYQQKAGQPPKLLIYWAPTQESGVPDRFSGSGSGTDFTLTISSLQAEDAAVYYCQQYHRLPLSFGGGTKVEIK, the assay gave 120 µM (2 of 3 replicates; controls 2 of 9). For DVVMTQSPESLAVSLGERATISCKGSQSVLYDSRNRNSVAWYQQKAGQPPKLLIYWASTRESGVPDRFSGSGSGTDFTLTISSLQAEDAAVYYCQQYHRLPLSFGGGTKVEIK, the assay gave 62 nM (3 of 3 replicates; controls 3 of 9). With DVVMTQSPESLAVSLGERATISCKSSQSVLFESRNMNSVAWYQQKAGQPPKLLIYKASTRESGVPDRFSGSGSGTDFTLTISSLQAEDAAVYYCQQYHRLPLSFGGGTKVEIK the result was 18 nM (3 of 3 replicates; controls 1 of 9). Variant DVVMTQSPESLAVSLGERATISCKSSQSVLYESRNPNSVAWYQQKAGQPPKLLIYWASTRESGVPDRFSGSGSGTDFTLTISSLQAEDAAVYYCQQGHRLPLSFGGGTKVEIK showed nd (0 of 3 replicates; controls 2 of 9). For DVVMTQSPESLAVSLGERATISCKSSQSVLSPSRNDNSVAWYQQKAGQPPKLLIYWASTRESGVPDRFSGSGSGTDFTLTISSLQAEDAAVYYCQQYHRLPLSFGGGTKVEIK, the assay gave 1.6 nM (3 of 3 replicates; controls 2 of 9).

Variant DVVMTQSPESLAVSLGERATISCKSSQGVLYESRNDNSVAWYQQKAGQPPKLLIYWASTRESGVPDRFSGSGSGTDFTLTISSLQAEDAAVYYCQHYHRLPLSFGGGTKVEIK gave 15 nM (3 of 3 replicates; controls 3 of 9). Variant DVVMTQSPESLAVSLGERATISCKSSQSVLYESRNANSVAWYQQKAGQPPKLLIYWASTREMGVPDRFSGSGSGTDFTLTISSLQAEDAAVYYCQQYHRLPLPFGGGTKVEIK showed 76 nM (3 of 3 replicates; controls 2 of 9). With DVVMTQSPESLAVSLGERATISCKSSQSVLYESRRHNSVAWYQQKAGQPPKLLIYWASTREEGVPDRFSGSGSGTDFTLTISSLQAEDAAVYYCQQYHRLPLSFGGGTKVEIK the result was 7.1 nM (3 of 3 replicates; controls 1 of 9). Variant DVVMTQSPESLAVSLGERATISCKSSQSVLYGSRNPNSVAWYQQKAGQPPKLLIYWASTRESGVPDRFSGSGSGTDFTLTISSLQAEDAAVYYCQQYHGLPLSFGGGTKVEIK showed 92 µM (2 of 3 replicates; controls 1 of 9). Variant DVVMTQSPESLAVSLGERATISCKSSQSVLYEMRNPNSVAWYQQKAGQPPKLLIYEASTRESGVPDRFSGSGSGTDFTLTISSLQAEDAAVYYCQQYHRLPLSFGGGTKVEIK showed nd (0 of 3 replicates; controls 0 of 9). Variant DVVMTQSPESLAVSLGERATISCKSSQSVLYESRNNNSVKWYQQKAGQPPKLLIYWASTRESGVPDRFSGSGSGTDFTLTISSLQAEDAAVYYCQQYHRLPLSFGGGTKVEIK showed 150 µM (3 of 3 replicates; controls 5 of 9). With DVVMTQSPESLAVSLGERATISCKSSWSVLYESRNANSVAWYQQKAGQPPKLLIYWADTRESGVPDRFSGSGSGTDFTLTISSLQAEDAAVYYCQQYHRLPLSFGGGTKVEIK the result was 2.9 µM (3 of 3 replicates; controls 1 of 9). Variant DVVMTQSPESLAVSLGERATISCKSSQSWLYESRNVNSVAWYQQKAGQPPKLLIYWASTRESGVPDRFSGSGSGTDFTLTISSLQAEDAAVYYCQQYHRLPLSFGGGTKVEIK gave 3.9 nM (3 of 3 replicates; controls 1 of 9).

Again, the first 3 entries without any signal:

| VL | Kd | seen in | signal with controls |
|---|---|---|---|
| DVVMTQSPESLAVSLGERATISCKSAQSVLYESRNYNSVAWYQQKAGQPPKLLIYWASTRESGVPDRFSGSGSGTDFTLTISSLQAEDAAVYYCQQYHRLMLSFGGGTKVEIK | nd | 0 of 3 | 2 of 9 |
| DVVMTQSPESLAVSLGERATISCKSSQSVLYESRNPNSVAWYQQKAGQPPKLLIYWASTRESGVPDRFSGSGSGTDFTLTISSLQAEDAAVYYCQQGHRLPLSFGGGTKVEIK | nd | 0 of 3 | 2 of 9 |
| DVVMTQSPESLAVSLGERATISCKSSQSVLYEMRNPNSVAWYQQKAGQPPKLLIYEASTRESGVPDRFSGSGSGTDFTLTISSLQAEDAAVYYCQQYHRLPLSFGGGTKVEIK | nd | 0 of 3 | 0 of 9 |